Assay results as given in US7572809B2, “Isoquinoline aminopyrazole derivatives” (Hoffmann-La Roche Inc., priority 2005, dated 2009).

By UniProt entry, the sequences of proteins in these tests, tags left out.
UniProt O14965, whole entry: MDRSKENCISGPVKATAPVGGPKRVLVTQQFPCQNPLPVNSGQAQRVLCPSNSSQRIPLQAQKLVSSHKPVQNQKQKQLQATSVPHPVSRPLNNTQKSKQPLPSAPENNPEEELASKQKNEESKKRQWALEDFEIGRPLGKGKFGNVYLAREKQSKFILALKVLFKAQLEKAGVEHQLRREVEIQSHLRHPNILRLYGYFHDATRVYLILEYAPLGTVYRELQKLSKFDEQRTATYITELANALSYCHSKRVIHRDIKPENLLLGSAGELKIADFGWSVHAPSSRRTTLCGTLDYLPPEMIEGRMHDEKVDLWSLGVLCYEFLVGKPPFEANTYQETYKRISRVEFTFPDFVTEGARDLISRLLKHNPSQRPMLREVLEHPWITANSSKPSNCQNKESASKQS

Target: Aurora A kinase (Homo sapiens, UniProt O14965)
Assay: IC50 determination for inhibitors of Aurora A kinase (ELISA, GST-Histone H3 substrate)
Conditions: read-out: IC50 Aurora A kinase inhibition; mutant Aurora A kinase, 30 μM ATP, 40 minutes
Procedure: IC50 Determination for Inhibitors of Aurora A Kinase
Aurora A is a Serine Threonine Kinase Involved in Spindle Assembly and Chromosome Segregation.
The assay is a typically ELISA-type assay where substrate (GST-Histone H3) is coupled to the assay-plate and is phosphorylated by the kinase. Phosphorylation is detected by a mouse anti-Phosphopeptid mAb and an HRP-labeled anti-mouse pAb. The assay is validated for IC50-determination.
Kinase activities were measured by Enzyme-Linked Immunosorbent Assay (ELISA): Maxisorp 384-well plates (Nunc) were coated with recombinant fusion protein comprising residues 1-15 of HistoneH3 fused to the N-terminus of Glutathione-S-Transferase. Plates were then blocked with a solution of 1 mg/mL I-block (Tropix cat# T2015—highly purified form of casein) in phosphate-buffered saline. […] After washing, substrate phosphorylation was detected by addition of anti-phospho-Histone H3 (Ser 10) 6G3 mAb (Cell Signaling cat #9706) and sheep anti-mouse pAb-HRP (Amersham cat# NA931V), followed by colorimetric development with TMB (3,3′,5,5′-tetramethylbenzidine from Kirkegaard & Perry Laboratories). After readout of the absorbance, IC50 values were calculated using a non-linear curve fit (XLfit® software (ID Business Solution Ltd., Guilford, Surrey, UK)).

## Fc1cccc(-c2nc(Nc3cc[nH]n3)cc3ccccc23)c1
  IC50: 615 nM
